This test deals with Salmonella typhimurium TA1535. Kind of test: Antimutagenicity test, TA1535. The note with it: TA1535, without S9, against direct mutagen sodium azide.

The source of these data is article PMC10301922, “Anti-Oxidant, Anti-Mutagenic Activity and Safety Evaluation of Antrocin” (Toxics, 2023).

SMILES strings stand for the structures.

With `C=C1CC[C@H]2C(C)(C)CCC[C@@]23C(=O)OC[C@@H]13` [Antrocin, (-)-Antrocin], the antimutagenic agent strength result was “moderately strong antimutagenic agent (inhibition is between 25% and 40%)”.
